Assay [1] addresses T1, Extracellular domain (ECD) of cynomolgus CEACAM5 with polyhistidine tag (Sino Biological, 90891-C08H) (cynomolgus monkey).
T1 construct: Bought protein; also called cCEACAM5 ECD; ECD of cyno CEACAM5; not shown: polyhistidine tag
T1 chain: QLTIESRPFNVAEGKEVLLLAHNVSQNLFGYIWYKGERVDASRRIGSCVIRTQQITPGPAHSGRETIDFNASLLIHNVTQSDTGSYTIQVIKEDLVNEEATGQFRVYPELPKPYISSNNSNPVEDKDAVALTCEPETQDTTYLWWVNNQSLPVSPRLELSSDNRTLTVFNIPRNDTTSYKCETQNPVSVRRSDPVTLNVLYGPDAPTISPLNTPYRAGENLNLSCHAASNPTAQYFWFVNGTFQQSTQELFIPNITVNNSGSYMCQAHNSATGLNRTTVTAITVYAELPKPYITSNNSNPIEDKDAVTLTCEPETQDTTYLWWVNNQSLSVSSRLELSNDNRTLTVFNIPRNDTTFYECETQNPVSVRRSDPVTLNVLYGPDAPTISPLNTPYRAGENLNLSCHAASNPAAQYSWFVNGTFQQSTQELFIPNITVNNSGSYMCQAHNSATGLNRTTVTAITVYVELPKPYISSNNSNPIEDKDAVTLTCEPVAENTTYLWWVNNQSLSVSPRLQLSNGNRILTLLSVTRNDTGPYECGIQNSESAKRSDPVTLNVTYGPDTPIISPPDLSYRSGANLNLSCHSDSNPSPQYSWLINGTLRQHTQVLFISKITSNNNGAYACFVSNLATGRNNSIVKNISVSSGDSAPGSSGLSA
The experiment in a line: BLI (Octet HTX), monovalent and bivalent methods. The procedure: (§1) Then, biosensors were incubated in kinetic buffer to allow for antibody dissociation to occur (1000 seconds). Sensorgrams capturing the association and dissociation of antibody from recombinant protein were generated at 30° C. on an Octet HTX system (Fortebio). Reference biosensors with immobilized recombinant protein were measured in the absence of test article. Negative control biosensors without immobilized recombinant protein were assessed with antibodies present at 500 nm to verify the absence of nonspecific binding of the antibodies to the Ni-NTA biosensors themselves. Data for BLI (biolayer interferometry) kinetic experiments were processed and analyzed on Fortebio's Data Analysis HT software. all sensorgrams were processed with a y-axis alignment to an average of the last 5 seconds of the baseline and an inter-step correction aligned to the dissociation step, the affinity constants were calculated by globally fitting the sensorgrams with a 1:1 langmuir adsorption isotherm model (Rmax unlinked) after a reference subtraction of the probe-loaded sensor in absence of analyte.
(§2) For testing of antibody binding to the A2B2 and A3B3 fragments of human CEACAM5 with the monovalent method, the tested antibodies were diluted in immobilization buffer (0.1% BSA+0.02% Tween20, 1×PBS pH 7.4) and loaded onto AHC (anti-human fc) biosensors (Fortebio) at 4 μg/ml for 600 seconds. After baselining in immobilization buffer, then kinetic buffer (0.5% BSA, 0.2% Tween20, 1×PBS pH 7.4), serial dilution of CEACAM5 recombinant proteins containing a c-terminal polyhistidine tag (5000 nm) in kinetic buffer were allowed to associate with antibody immobilized on biosensors until the recombinant protein reached equilibrium with antibody (300 seconds). Then, biosensors were incubated in kinetic buffer to allow for recombinant protein dissociation to occur (1000 seconds). […] Reference biosensors with immobilized recombinant protein were measured in the absence of test article. Data for BLI (biolayer interferometry) kinetic experiments were processed and analyzed on Fortebio's Data Analysis HT software.

For assay [2], the target named is T2, hCEACAM5 A2-B2 domains fragment (A2B2) with C-terminal polyhistidine tag (human, UniProt P06731 321-498).
T2 construct: also called A2B2 fragment of human CEACAM5; not shown: C-terminal polyhistidine tag
T2 sequence: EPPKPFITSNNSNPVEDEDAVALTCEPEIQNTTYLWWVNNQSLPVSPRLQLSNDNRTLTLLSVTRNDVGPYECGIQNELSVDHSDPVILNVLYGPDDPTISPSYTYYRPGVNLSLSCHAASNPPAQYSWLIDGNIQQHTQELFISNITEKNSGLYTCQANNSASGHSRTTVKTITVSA
The experiment in a line: BLI (Octet HTX), monovalent and bivalent methods. The procedure:
as §1, §2

The target of assay [3] is T3, hCEACAM5 A3-B3 domains fragment (A3B3) with C-terminal polyhistidine tag (human, UniProt P06731 499-685).
T3 construct: also called A3B3 fragment of human CEACAM5; A2B3 (as printed once); not shown: C-terminal polyhistidine tag
T3 sequence: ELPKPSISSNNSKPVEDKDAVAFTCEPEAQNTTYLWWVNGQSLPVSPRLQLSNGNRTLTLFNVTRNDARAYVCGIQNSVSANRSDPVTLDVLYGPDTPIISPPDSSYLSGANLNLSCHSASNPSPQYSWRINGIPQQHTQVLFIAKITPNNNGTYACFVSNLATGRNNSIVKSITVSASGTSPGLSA
The assay is described as follows: BLI (Octet HTX), monovalent and bivalent methods. The procedure:
as §1, §2

Assay [4] has as its target T4, Human CEACAM7 on HEK293T cells (human, UniProt Q14002 36-242).
T4 construct: Stably transfected HEK293T cells; also called hCEACAM7
T4 sequence: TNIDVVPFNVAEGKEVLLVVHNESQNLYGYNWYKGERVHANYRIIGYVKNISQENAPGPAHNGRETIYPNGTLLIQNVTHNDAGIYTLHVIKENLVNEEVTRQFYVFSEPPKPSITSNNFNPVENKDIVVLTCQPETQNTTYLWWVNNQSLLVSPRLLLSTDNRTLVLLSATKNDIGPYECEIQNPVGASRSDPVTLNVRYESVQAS
The assay is described as follows: flow cytometry on stably transfected HEK293T cells. An excerpt: (§3) HEK293T cells were stably transfected to express human CEACAM1, cynomolgus CEACAM5, human CEACAM5, human CEACAM6, human CEACAM7, or human CEACAM8. Surface expression was confirmed by positive staining by multiple pan-CEACAM antibody clones by flow cytometry. […] The results are shown as fold signal over background, with background set by a non-binding antibody control in (Table 2).

Assay [5] has as its target T5, Human CEACAM8 on HEK293T cells (human, UniProt P31997 35-320).
T5 construct: Stably transfected HEK293T cells; also called hCEACAM8
T5 sequence: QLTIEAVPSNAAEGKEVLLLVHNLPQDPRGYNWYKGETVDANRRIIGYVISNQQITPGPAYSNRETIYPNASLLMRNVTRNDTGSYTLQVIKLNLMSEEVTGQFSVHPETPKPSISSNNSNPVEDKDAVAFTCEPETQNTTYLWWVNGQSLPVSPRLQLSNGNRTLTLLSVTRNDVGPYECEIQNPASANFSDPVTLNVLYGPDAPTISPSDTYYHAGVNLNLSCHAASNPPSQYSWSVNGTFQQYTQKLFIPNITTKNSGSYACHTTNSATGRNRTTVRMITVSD
The experiment in a line: flow cytometry on stably transfected HEK293T cells.
From the text: as §3

Assay [6] addresses T6, Cynomolgus monkey CEACAM5 on HEK293T cells (cynomolgus monkey).
T6 construct: Stably transfected HEK293T cells; also called cyCEACAM5; cyno CEACAM5
T6 chain: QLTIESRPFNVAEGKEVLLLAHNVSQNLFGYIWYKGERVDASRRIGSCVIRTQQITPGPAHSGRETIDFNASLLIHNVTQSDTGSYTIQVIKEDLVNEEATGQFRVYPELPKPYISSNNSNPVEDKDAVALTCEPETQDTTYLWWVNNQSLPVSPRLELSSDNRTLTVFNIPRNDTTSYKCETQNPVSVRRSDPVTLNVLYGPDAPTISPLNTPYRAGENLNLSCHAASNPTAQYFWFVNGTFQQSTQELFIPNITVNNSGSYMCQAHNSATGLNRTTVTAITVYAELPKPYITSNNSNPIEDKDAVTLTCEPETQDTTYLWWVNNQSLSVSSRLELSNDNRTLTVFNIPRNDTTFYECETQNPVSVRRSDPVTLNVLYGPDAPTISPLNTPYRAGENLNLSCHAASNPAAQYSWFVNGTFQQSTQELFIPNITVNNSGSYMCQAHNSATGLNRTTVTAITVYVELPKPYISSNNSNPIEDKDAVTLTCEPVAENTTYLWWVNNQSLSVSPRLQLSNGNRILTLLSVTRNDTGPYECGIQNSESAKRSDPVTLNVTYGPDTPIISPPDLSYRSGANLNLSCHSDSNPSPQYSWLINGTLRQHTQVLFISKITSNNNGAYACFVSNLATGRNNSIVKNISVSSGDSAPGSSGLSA
The assay is described as follows: flow cytometry on stably transfected HEK293T cells.
From the text: as §3

Assay [7] deals with T7, Human CEACAM6 on HEK293T cells (human, UniProt P40199 35-320).
T7 construct: Stably transfected HEK293T cells; also called hCEACAM6
T7 sequence: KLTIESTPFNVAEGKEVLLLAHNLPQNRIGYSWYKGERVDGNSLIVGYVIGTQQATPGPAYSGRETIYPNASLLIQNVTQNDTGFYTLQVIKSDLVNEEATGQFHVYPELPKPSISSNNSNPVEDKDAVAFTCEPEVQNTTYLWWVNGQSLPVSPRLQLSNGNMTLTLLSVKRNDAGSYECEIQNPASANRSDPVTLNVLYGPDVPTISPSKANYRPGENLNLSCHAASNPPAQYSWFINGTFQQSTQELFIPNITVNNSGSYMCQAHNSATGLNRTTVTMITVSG
The assay is described as follows: flow cytometry on stably transfected HEK293T cells.
From the text: as §3

Assay [8] has as its target T8, CEACAM5 recombinant protein (human CEACAM5, Example 2) (human, UniProt P06731 35-685, limits assumed).
T8 construct: also called immobilized CEACAM5 recombinant protein
T8 sequence: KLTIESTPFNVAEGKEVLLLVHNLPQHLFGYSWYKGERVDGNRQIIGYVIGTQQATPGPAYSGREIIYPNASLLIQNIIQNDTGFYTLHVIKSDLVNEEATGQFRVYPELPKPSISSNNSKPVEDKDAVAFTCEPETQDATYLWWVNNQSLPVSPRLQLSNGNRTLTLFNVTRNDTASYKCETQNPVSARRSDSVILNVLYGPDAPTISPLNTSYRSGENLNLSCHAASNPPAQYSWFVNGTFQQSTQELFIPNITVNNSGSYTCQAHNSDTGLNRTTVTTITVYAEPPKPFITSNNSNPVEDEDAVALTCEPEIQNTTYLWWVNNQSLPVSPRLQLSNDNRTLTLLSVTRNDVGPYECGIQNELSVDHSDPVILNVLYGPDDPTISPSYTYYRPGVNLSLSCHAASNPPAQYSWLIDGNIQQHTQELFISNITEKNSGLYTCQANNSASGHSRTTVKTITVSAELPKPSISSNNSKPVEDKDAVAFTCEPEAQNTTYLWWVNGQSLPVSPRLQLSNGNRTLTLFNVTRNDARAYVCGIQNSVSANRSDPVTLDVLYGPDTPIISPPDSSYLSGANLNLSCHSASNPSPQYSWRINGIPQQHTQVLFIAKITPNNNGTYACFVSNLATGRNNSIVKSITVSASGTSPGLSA
The experiment in a line: BLI (Octet HTX), monovalent affinity to recombinant human CEACAM5.

For assay [9], the target named is T4, Human CEACAM7 on HEK293T cells. The experiment in a line: flow cytometry on HEK293T cells expressing the target; background set by a non-binding antibody control.
From the text: as §3

Assay [10] concerns the target T5, Human CEACAM8 on HEK293T cells. Described as above.
From the text: as §3

For another assay, the target named is T9, Human CEACAM5 on cells (human, UniProt P06731 35-685).
T9 construct: also called hCEACAM5; CD66e
T9 sequence: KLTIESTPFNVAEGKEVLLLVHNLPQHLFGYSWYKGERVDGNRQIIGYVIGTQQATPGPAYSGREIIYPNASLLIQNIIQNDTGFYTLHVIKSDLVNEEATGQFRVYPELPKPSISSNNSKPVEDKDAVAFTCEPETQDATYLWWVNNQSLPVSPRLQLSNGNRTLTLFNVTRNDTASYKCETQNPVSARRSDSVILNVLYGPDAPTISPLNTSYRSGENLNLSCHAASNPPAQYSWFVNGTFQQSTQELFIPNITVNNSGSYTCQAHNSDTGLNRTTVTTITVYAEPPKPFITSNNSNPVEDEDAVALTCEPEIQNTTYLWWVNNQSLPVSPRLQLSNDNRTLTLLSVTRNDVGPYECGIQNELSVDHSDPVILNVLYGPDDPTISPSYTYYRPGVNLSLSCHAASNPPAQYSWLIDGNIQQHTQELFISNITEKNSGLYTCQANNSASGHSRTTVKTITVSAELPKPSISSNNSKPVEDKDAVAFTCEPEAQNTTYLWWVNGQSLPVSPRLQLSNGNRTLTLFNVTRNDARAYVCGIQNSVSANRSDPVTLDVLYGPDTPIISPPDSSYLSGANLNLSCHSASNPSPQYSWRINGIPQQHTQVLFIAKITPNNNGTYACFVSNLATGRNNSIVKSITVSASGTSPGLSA
The assay is described as above.
From the text: as §3

Assay [11] deals with T6, Cynomolgus monkey CEACAM5 on HEK293T …. The description is as above.
From the text: as §3

Assay [12] has as its target T7, Human CEACAM6 on HEK293T cells. The description is as above.
From the text: as §3

The values below come from patent US20250381291A1 (Seagen, published 2025).

B1: SG-105.2E4 antibody (antibody, human IgG1, kappa)
heavy: not shown
light: EIVLTQSPGTLSLSPGERATLSCRASQSISSIYLAWYQHKPGQAPMLLIYGASSRATGIPDRFSGSGSGTDFTLTISRLEPEDFAVYYCQQFGSSPWTFGQGTKLEIKRTVAAPSVFIFPPSDEQLKSGTASVVCLLNNFYPREAKVQWKVDNALQSGNSQESVTEQDSKDSTYSLSSTLTLSKADYEKHKVYACEVTHQGLSSPVTKSFNRGEC
On to B1, for which the binding result in assay [1] is reported as “no binding (tested: up to 500 nm)”; in [2], “no binding”; in assay [3], “no binding”; in assay [4], “no binding”; in assay [5], “no binding”; in assay [6], “no binding”. The binding result in [7] is “no binding”. Also, the dissociation constant Kd in assay [8] was found to be 3 nM. The “fold signal over background” value came out at 1 fold over background in [9]; 0.5 fold over background in [10]; 18.7 fold over background with Human CEACAM5 on cells; 1 fold over background in assay [11]; 0.8 fold over background in assay [12].

B2: SG-105.2E4 EC4 antibody (antibody, human IgG1)
heavy: not shown
light: EIVLTQSPGTLSLSPGERATLSCRASQSISSIYLAWYQHKPGQAPMLLIYGASSRATGIPDRFSGSGSGTDFTLTISRLEPEDFAVYYCQQFGSSPWTFGQGTKLEIKRTVAAPCVFIFPPSDEQLKSGTASVVCLLNNFYPREAKVQWKVDNALQSGNSQESVTEQDSKDSTYSLSSTLTLSKADYEKHKVYACEVTHQGLSSPVTKSFNRGEC
As to B2, the Kd in assay [8] stood at 3.6 nM.
